Tested on: BJAB cells
Assay: Annexin V/PI apoptosis analysis, BJAB
Format: cell-based
Conditions: in the presence of crosslinking, Ramos, Daudi, Table 2

Substance: TRU-015: recombinant (murine/human) single chain protein that binds to the CD20 antigen; SEQ ID NO: 4
- effect on apoptosis of cell lines: induce some apoptosis
